Source: paper PMC8227400, “Novel N-Arylsulfonylindoles Targeted as Ligands of the 5-HT6 Receptor. Insights on the Influence of C-5 Substitution on Ligand Affinity” (Pharmaceuticals, 2021)

Amino acid sequences for entries named in this document (tags omitted).
UniProt P50406, whole entry: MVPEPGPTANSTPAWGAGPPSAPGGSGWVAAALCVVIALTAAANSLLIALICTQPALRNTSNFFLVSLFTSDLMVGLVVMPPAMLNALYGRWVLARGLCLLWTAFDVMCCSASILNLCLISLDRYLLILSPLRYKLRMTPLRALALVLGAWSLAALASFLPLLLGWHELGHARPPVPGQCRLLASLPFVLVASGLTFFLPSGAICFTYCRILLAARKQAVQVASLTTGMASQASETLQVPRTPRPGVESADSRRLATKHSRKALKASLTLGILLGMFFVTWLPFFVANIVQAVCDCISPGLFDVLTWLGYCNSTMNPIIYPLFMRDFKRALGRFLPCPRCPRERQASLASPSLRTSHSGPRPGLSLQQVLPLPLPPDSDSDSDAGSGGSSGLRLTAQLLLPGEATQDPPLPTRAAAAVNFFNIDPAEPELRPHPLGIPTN

These compounds were tested against T1, human 5-HT6 receptor (Homo sapiens, UniProt P50406) (assay: not given). Details: ratio of Ki to that of PUC-10 (14.6 nM).

SMILES	diminished affinity compared to PUC-10 [fold]
COc1ccccc1N1CCN(CC(O)c2cn(S(=O)(=O)c3cccc4ccccc34)c3ccc(F)cc23)CC1 (stereo not drawn) [4d, 1-(5-fluoro-1-(naphthalen-1-ylsulfonyl)-1H-indol-3-yl)-2-(4-(2-methoxyphenyl)piperazin-1-yl)ethan-1-ol]	4
COc1ccc2c(c1)c(C(O)CN1CCN(c3ccccc3OC)CC1)cn2S(=O)(=O)c1cccc2ccccc12 (stereo not drawn) [4l, 1-(5-methoxy-1-(naphthalen-1-ylsulfonyl)-1H-indol-3-yl)-2-(4-(2-methoxyphenyl)piperazin-1-yl)ethan-1-ol]	11

Each compound was assayed against T1, human 5-HT6 receptor (assay: biochemical). Details: not given.

SMILES	Ki [nM]
COc1ccccc1N1CCN(CC(O)c2cn(S(=O)(=O)c3ccc(I)cc3)c3ccc(F)cc23)CC1 (stereo not drawn) [4a, 1-(5-fluoro-1-((4-iodophenyl)sulfonyl)-1H-indol-3-yl)-2-(4-(2-methoxyphenyl)piperazin-1-yl) ethan-1-ol]	390
O=S(=O)(c1ccc(I)cc1)n1cc(C(O)CN2CCN(c3ccccn3)CC2)c2cc(F)ccc21 (stereo not drawn) [4b, 1-(5-fluoro-1-((4-iodophenyl)sulfonyl)-1H-indol-3-yl)-2-(4-(pyridin-2-yl)piperazin-1-yl)ethan-1-ol]	3630
O=S(=O)(c1ccc(I)cc1)n1cc(C(O)CN2CCOCC2)c2cc(F)ccc21 (stereo not drawn) [4c, 1-(5-fluoro-1-((4-iodophenyl)sulfonyl)-1H-indol-3-yl)-2-morpholinoethan-1-ol]	12500
COc1ccccc1N1CCN(CC(O)c2cn(S(=O)(=O)c3cccc4ccccc34)c3ccc(F)cc23)CC1 (stereo not drawn) [4d, 1-(5-fluoro-1-(naphthalen-1-ylsulfonyl)-1H-indol-3-yl)-2-(4-(2-methoxyphenyl)piperazin-1-yl)ethan-1-ol]	58.3
O=S(=O)(c1cccc2ccccc12)n1cc(C(O)CN2CCN(c3ccccn3)CC2)c2cc(F)ccc21 (stereo not drawn) [4e, 1-(5-fluoro-1-(naphthalen-1-ylsulfonyl)-1H-indol-3-yl)-2-(4-(pyridin-2-yl)piperazin-1-yl)ethan-1-ol]	801
O=S(=O)(c1cccc2ccccc12)n1cc(C(O)CN2CCOCC2)c2cc(F)ccc21 (stereo not drawn) [4f, 1-(5-fluoro-1-(naphthalen-1-ylsulfonyl)-1H-indol-3-yl)-2-morpholinoethan-1-ol]	683
O=S(=O)(c1cccc2ccccc12)n1cc(C(O)CN2CCN(c3ncccn3)CC2)c2cc(F)ccc21 (stereo not drawn) [4g, 1-(5-fluoro-1-(naphthalen-1-ylsulfonyl)-1H-indol-3-yl)-2-(4-(pyrimidin-2-yl)piperazin-1-yl)ethan-1-ol]	1440
COc1ccc(S(=O)(=O)n2cc(C(O)CN3CCN(c4ccccc4OC)CC3)c3cc(F)ccc32)cc1 (stereo not drawn) [4h, 1-(5-fluoro-1-((4-methoxyphenyl)sulfonyl)-1H-indol-3-yl)-2-(4-(2-methoxyphenyl)piperazin-1-yl)ethan-1-ol]	850
COc1ccc2c(c1)c(C(O)CN1CCOCC1)cn2S(=O)(=O)c1ccc(I)cc1 (stereo not drawn) [4k, 1-(1-((4-iodophenyl)sulfonyl)-5-methoxy-1H-indol-3-yl)-2-morpholinoethan-1-ol]	403
COc1ccc2c(c1)c(C(O)CN1CCOCC1)cn2S(=O)(=O)c1cccc2ccccc12 (stereo not drawn) [4m, 1-(5-methoxy-1-(naphthalen-1-ylsulfonyl)-1H-indol-3-yl)-2-morpholinoethan-1-ol]	247
COc1ccc2c(c1)c(C(O)CN1CCOCC1)cn2S(=O)(=O)c1ccc(C)cc1 (stereo not drawn) [4q, 1-(5-methoxy-1-tosyl-1H-indol-3-yl)-2-morpholinoethan-1-ol]	4020
COc1ccc2c(c1)c(C(O)CN1CCOCC1)cn2S(=O)(=O)c1ccc(Br)s1 (stereo not drawn) [4s, 1-(1-((5-bromothiophen-2-yl)sulfonyl)-5-methoxy-1H-indol-3-yl)-2-morpholinoethan-1-ol]	130
COc1ccc(S(=O)(=O)n2cc(C(O)CN3CCOCC3)c3cc(OC)ccc32)cc1 (stereo not drawn) [4t, 1-(5-methoxy-1-((4-methoxyphenyl)sulfonyl)-1H-indol-3-yl)-2-morpholinoethan-1-ol]	7490

More lines, now with the values ahead:

Ki [nM]	SMILES
381	COc1ccccc1N1CCN(CC(O)c2cn(S(=O)(=O)c3ccc(Br)s3)c3ccc(F)cc23)CC1 (stereo not drawn) [4i, 1-(1-((5-bromothiophen-2-yl)sulfonyl)-5-fluoro-1H-indol-3-yl)-2-(4-(2-methoxyphenyl)piperazin-1-yl)ethan-1-ol]
289	COc1ccc2c(c1)c(C(O)CN1CCN(c3ccccc3OC)CC1)cn2S(=O)(=O)c1ccc(I)cc1 (stereo not drawn) [4j, 1-(1-((4-iodophenyl)sulfonyl)-5-methoxy-1H-indol-3-yl)-2-(4-(2-methoxyphenyl)piperazin-1-yl)ethan-1-ol]
160	COc1ccc2c(c1)c(C(O)CN1CCN(c3ccccc3OC)CC1)cn2S(=O)(=O)c1cccc2ccccc12 (stereo not drawn) [4l, 1-(5-methoxy-1-(naphthalen-1-ylsulfonyl)-1H-indol-3-yl)-2-(4-(2-methoxyphenyl)piperazin-1-yl)ethan-1-ol]
153	COc1ccc2c(c1)c(C(O)CN1CCN(c3ccccn3)CC1)cn2S(=O)(=O)c1cccc2ccccc12 (stereo not drawn) [4n, 1-(5-methoxy-1-(naphthalen-1-ylsulfonyl)-1H-indol-3-yl)-2-(4-(pyridin-2-yl)piperazin-1-yl)ethan-1-ol]
972	COc1ccc2c(c1)c(C(O)CN1CCN(c3ccccc3OC)CC1)cn2S(=O)(=O)c1ccc(C)cc1 (stereo not drawn) [4o, 1-(5-methoxy-1-tosyl-1H-indol-3-yl)-2-(4-(2-methoxyphenyl)piperazin-1-yl)ethan-1-ol]
2190	COc1ccc2c(c1)c(C(O)CN1CCN(c3ccccn3)CC1)cn2S(=O)(=O)c1ccc(C)cc1 (stereo not drawn) [4p, 1-(5-methoxy-1-tosyl-1H-indol-3-yl)-2-(4-(pyridin-2-yl)piperazin-1-yl)ethan-1-ol]
167	COc1ccc2c(c1)c(C(O)CN1CCN(c3ccccc3OC)CC1)cn2S(=O)(=O)c1ccc(Br)s1 (stereo not drawn) [4r, 1-(1-((5-bromothiophen-2-yl)sulfonyl)-5-methoxy-1H-indol-3-yl)-2-(4-(2-methoxyphenyl)piperazin-1-yl)ethan-1-ol]
270	COc1ccc(S(=O)(=O)n2cc(C(O)CN3CCN(c4ccccc4OC)CC3)c3cc(OC)ccc32)cc1 (stereo not drawn) [4u, 1-(5-methoxy-1-((4-methoxyphenyl)sulfonyl)-1H-indol-3-yl)-2-(4-(2-methoxyphenyl)piperazin-1-yl)ethan-1-ol]
2180	COc1ccc(S(=O)(=O)n2cc(C(O)CN3CCN(c4ccccn4)CC3)c3cc(OC)ccc32)cc1 (stereo not drawn) [4v, 1-(5-methoxy-1-((4-methoxyphenyl)sulfonyl)-1H-indol-3-yl)-2-(4-(pyridin-2-yl)piperazin-1-yl)ethan-1-ol]
